Measured values taken from patent US9358250B2, “Methods of using SCD1 antagonists” (Genentech, Inc., priority 2011, dated 2016).

Sequences of proteins named here, by UniProt entry; tags and fusion partners are left off.
UniProt O00767, whole entry: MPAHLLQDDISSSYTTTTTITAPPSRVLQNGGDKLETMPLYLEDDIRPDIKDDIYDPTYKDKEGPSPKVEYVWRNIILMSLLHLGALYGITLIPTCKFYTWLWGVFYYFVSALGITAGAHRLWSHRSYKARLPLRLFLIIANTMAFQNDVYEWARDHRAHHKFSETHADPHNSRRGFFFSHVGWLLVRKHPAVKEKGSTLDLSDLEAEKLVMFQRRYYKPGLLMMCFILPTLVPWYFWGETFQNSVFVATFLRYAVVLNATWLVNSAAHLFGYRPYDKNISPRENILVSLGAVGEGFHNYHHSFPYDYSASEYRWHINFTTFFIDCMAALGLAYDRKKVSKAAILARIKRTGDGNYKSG
UniProt P07308, whole entry: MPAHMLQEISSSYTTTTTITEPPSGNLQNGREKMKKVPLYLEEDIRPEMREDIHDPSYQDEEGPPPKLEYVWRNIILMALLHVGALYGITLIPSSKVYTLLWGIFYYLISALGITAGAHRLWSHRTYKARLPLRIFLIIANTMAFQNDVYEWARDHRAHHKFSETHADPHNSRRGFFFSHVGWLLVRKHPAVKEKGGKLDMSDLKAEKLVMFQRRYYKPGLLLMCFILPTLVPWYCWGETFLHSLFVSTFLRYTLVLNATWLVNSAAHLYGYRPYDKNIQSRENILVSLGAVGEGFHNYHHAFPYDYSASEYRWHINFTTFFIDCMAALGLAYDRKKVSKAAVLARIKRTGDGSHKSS

Columns and labels:
[1] = system: SW1990; assay: Cell viability, CellTiter-Glo; details: SW1990, pancreatic cancer cell line, 72 hr
[2] = system: CL-11; assay: Cell viability, CellTiter-Glo; details: CL-11, colon cancer cell line, 72 hr
[3] = system: 786.O; assay: Cell viability, CellTiter-Glo; details: read-out: Cell Titer IC50, RCC cancer cell line, 72 hr
[4] = system: LNCap/Ner; assay: Cell viability, CellTiter-Glo; details: prostate cell line, 72 hr
[5] = system: Capan-2; assay: Cell viability, CellTiter-Glo; details: Capan-2, pancreatic cancer cell line, 72 hr
[6] = system: Hs 766T; assay: Cell viability, CellTiter-Glo; details: pancreatic cancer cell line, 72 hr
[7] = system: ACHN; assay: Cell viability, CellTiter-Glo; details: read-out: Cell Titer IC50, RCC cancer cell line, 72 hr
[8] = system: CFPAC-1; assay: Cell viability, CellTiter-Glo; details: read-out: Cell Titer IC50; CFPAC-1, pancreatic cancer cell line, 72 hr
[9] = system: LoVo; assay: Cell viability, CellTiter-Glo; details: read-out: Cell Titer IC50, colon cancer cell line, 72 hr
[10] = system: HPAF-II; assay: Cell viability, CellTiter-Glo; details: read-out: Cell Titer IC50, pancreatic cancer cell line, 72 hr
[11] = system: KP4 X1.1; assay: Cell viability, CellTiter-Glo; details: read-out: Cell Titer IC50; KP4 X1.1, pancreatic cancer cell line, 72 hr
[12] = system: UMUC-14; assay: Cell viability, CellTiter-Glo
[13] = system: LS174T; assay: Cell viability, CellTiter-Glo; details: read-out: Cell Titer IC50, colon cancer cell line, 72 hr
[14] = system: RKO; assay: Cell viability, CellTiter-Glo; details: read-out: Cell Titer IC50, colon cancer cell line, 72 hr
[15] = system: Caki 1; assay: Cell viability, CellTiter-Glo; details: Caki 1, RCC cancer cell line, 72 hr
[16] = system: BxPC-3; assay: Cell viability, CellTiter-Glo; details: read-out: Cell Titer IC50; BxPC-3, pancreatic cancer cell line, 72 hr
[17] = system: Capan-1; assay: Cell viability, CellTiter-Glo; details: read-out: Cell Titer IC50; Capan-1, pancreatic cancer cell line, 72 hr
[18] = system: Cal 54; assay: Cell viability, CellTiter-Glo; details: Cal 54, RCC cancer cell line, 72 hr
[19] = system: HT29; assay: Cell viability, CellTiter-Glo; details: read-out: Cell Titer IC50; HT29, colon cancer cell line, 72 hr
[20] = system: HPAC; assay: Cell viability, CellTiter-Glo; details: read-out: Cell Titer IC50, pancreatic cancer cell line, 72 hr
[21] = system: SW780; assay: Cell viability, CellTiter-Glo
[22] = system: BTFC905; assay: Cell viability, CellTiter-Glo; details: read-out: Cell Titer IC50; BTFC905, bladder cancer cell line, 72 hr
[23] = system: SW620; assay: Cell viability, CellTiter-Glo; details: read-out: Cell Titer IC50; SW620, colon cancer cell line, 72 hr
[24] = system: Colo205; assay: Cell viability, CellTiter-Glo; details: read-out: Cell Titer IC50; Colo205, colon cancer cell line, 72 hr
[25] = system: AsPC-1; assay: Cell viability, CellTiter-Glo; details: AsPC-1, pancreatic cancer cell line, 72 hr
[26] = system: MIA PaCa-2; assay: Cell viability, CellTiter-Glo; details: read-out: Cell Titer IC50; MIA PaCa-2, pancreatic cancer cell line, 72 hr
[27] = system: PC-3; assay: Cell viability, CellTiter-Glo; details: PC-3, prostate cell line, 72 hr
[28] = system: Du145; assay: Cell viability, CellTiter-Glo; details: read-out: Cell Titer IC50; Du145, prostate cell line, 72 hr
[29] = system: Caki 2; assay: Cell viability, CellTiter-Glo; details: Caki 2, RCC cancer cell line, 72 hr
[30] = system: LS 180; assay: Cell viability, CellTiter-Glo; details: read-out: Cell Titer IC50; LS 180, colon cancer cell line, 72 hr
[31] = system: DLD1; assay: Cell viability, CellTiter-Glo; details: read-out: Cell Titer IC50; DLD1, colon cancer cell line, 72 hr
[32] = system: HCT-15; assay: Cell viability, CellTiter-Glo; details: read-out: Cell Titer IC50; HCT-15, colon cancer cell line, 72 hr
[33] = system: BFTC909; assay: Cell viability, CellTiter-Glo; details: read-out: Cell Titer IC50; BFTC909, RCC cancer cell line, 72 hr
[34] = system: 786.O-VHL; assay: Cell viability, CellTiter-Glo; details: read-out: Cell Titer IC50, RCC cancer cell line, 72 hr
[35] = system: HCT116; assay: Cell viability, CellTiter-Glo; details: read-out: Cell Titer IC50; HCT116, colon cancer cell line, 72 hr
[36] = system: 769P; assay: Cell viability, CellTiter-Glo; details: read-out: Cell Titer IC50, RCC cancer cell line, 72 hr
[37] = system: G402; assay: Cell viability, CellTiter-Glo; details: read-out: Cell Titer IC50; G402, RCC cancer cell line, 72 hr
[38] = system: HT55; assay: Cell viability, CellTiter-Glo; details: read-out: Cell Titer IC50; HT55, colon cancer cell line, 72 hr
[39] = system: 4031.A; assay: Cell viability, CellTiter-Glo; details: read-out: Cell Titer IC50, RCC cancer cell line, 72 hr
[40] = system: PANC-1; assay: Cell viability, CellTiter-Glo; details: read-out: Cell Titer IC50; PANC-1, pancreatic cancer cell line, 72 hr
[41] = system: HM7; assay: Cell viability, CellTiter-Glo; details: read-out: Cell Titer IC50; HM7, colon cancer cell line, 72 hr
[42] = system: AKT phosphorylation, caspases 3 and 7, PARP; assay: Western blot of UMUC-14 cell lysates; assay type: cell-based, human; details: UMUC-14 cells, 20 hr
[43] = system: pancreatic cancer cell lines; assay: Caspase-Glo 3/7 assay; details: pancreatic cancer cells, 48 hr
[44] = system: kidney cancer cell lines; assay: Caspase-Glo 3/7 assay; details: kidney cancer cells, 48 hr
[45] = system: colon cancer cell lines; assay: Caspase-Glo 3/7 assay; details: colon cancer cells, 48 hr
[46] = system: multiple bladder cancer cell lines; assay: Proliferation and apoptosis in culture; details: data not shown
[47] = molecular target: SCD1 (Homo sapiens, UniProt O00767); assay: SCD1 activity assay in cells
[48] = molecular target: rat SCD1 (Rattus norvegicus, UniProt P07308); details: cited from earlier work
[49] = system: human cancer cell lines, including colon, prostate, pancreatic, and bladder cancers; assay: Cell viability, CellTiter-Glo, panel; details: panel of human cancer cell lines, 72 hr
[50] = system: UMUC-14 tumors; assay: Xenograft tumor growth
[51] = system: DLD1 tumors; assay: Xenograft tumor growth; details: DLD1, colon, orally twice a day
[52] = system: fatty acid desaturation; assay: Fatty acid desaturation in tumor tissues, mouse liver and plasma (gas chromatography); details: 75 mg/kg twice a day, 2 hr after last treatment

Question: Which “Cell Titer IC50” value [1] does the source give for CNC(=O)c1cccc(NC(=O)N2CCC(Oc3ccccc3Cl)CC2)c1 here?
Answer: Resistant

Question: And the “Maximum Inhibition” value [1]?
Answer: None

Question: What about the “Cell Titer IC50” value [2] of the same molecule?
Answer: Resistant

Question: And the IC50 [3]?
Answer: 0.0324 µM

Question: What about the “Cell Titer IC50” value [4] of the same molecule?
Answer: Resistant

Question: What about the “Maximum Inhibition” value [4] of the same molecule?
Answer: None

Question: And the “Cell Titer IC50” value [5]?
Answer: Resistant

Question: What about the “Maximum Inhibition” value [5] of the same molecule?
Answer: None

Question: And the “Cell Titer IC50” value [6]?
Answer: Resistant

Question: And the IC50 [7]?
Answer: 0.0158 µM

Question: What about the IC50 [8] of the same molecule?
Answer: 0.0149 µM

Question: What about the IC50 [9] of the same molecule?
Answer: 0.0063 µM

Question: What about the IC50 [10] of the same molecule?
Answer: 0.0483 µM

Question: What about the IC50 [11] of the same molecule?
Answer: 0.006 µM

Question: What about the “effect of exogenously supplemented oleate on growth inhibition” value ([12]; 100 nM, UMUC-14 cells) of the same molecule?
Answer: reversed the growth inhibitory effect in a dose-dependent fashion

Question: What about the “effect of palmitate on growth inhibition” value ([12]; 100 nM, UMUC-14 cells) of the same molecule?
Answer: failed to rescue the cells

Question: What about the reduction of viability ([12]; 100 nM, UMUC-14 cells) of the same molecule?
Answer: approximately 85%

Question: What about the IC50 ([12]; read-out: Cell Titer IC50, UMUC-14, bladder cancer cell line, 72 hr) of the same molecule?
Answer: 0.0144 µM

Question: And the IC50 [13]?
Answer: 0.0313 µM

Question: What about the IC50 [14] of the same molecule?
Answer: 0.0073 µM

Question: And the “Cell Titer IC50” value [15]?
Answer: Resistant

Question: And the IC50 [16]?
Answer: 0.0309 µM

Question: What about the IC50 [17] of the same molecule?
Answer: 0.0103 µM

Question: What about the “Cell Titer IC50” value [18] of the same molecule?
Answer: Resistant

Question: And the IC50 [19]?
Answer: 0.0041 µM

Question: What about the IC50 [20] of the same molecule?
Answer: 0.0405 µM

Question: And the “effect of oleate on inhibition of viability” value ([21]; SW780, 1% FBS, 100 nM, 48 hr)?
Answer: oleate rescues SW780 cells

Question: What about the “effect of palmitate on inhibition of viability” value ([21]; SW780, 1% FBS, 100 nM, 48 hr) of the same molecule?
Answer: unable to reverse the effect

Question: And the IC50 ([21]; read-out: Cell Titer IC50, SW780, bladder cancer cell line, 72 hr)?
Answer: 0.0125 µM

Question: What about the IC50 [22] of the same molecule?
Answer: 0.0126 µM

Question: What about the IC50 [23] of the same molecule?
Answer: 0.0117 µM

Question: What about the IC50 [24] of the same molecule?
Answer: 0.0204 µM

Question: What about the “Cell Titer IC50” value [25] of the same molecule?
Answer: Resistant

Question: What about the “Maximum Inhibition” value [25] of the same molecule?
Answer: None

Question: What about the IC50 [26] of the same molecule?
Answer: 0.0128 µM

Question: And the “Cell Titer IC50” value [27]?
Answer: Resistant

Question: What about the “Maximum Inhibition” value [27] of the same molecule?
Answer: None

Question: And the IC50 [28]?
Answer: 0.0071 µM

Question: What about the “Cell Titer IC50” value [29] of the same molecule?
Answer: Resistant

Question: What about the IC50 [30] of the same molecule?
Answer: 0.0188 µM

Question: And the IC50 [31]?
Answer: 0.0046 µM

Question: And the IC50 [32]?
Answer: 0.0069 µM

Question: What about the IC50 [33] of the same molecule?
Answer: 0.767 µM

Question: And the IC50 [34]?
Answer: 0.032 µM

Question: And the IC50 [35]?
Answer: 0.0415 µM

Question: What about the IC50 [36] of the same molecule?
Answer: 0.0776 µM

Question: What about the IC50 [37] of the same molecule?
Answer: 0.69 µM

Question: What about the IC50 [38] of the same molecule?
Answer: 0.0183 µM

Question: And the IC50 [39]?
Answer: 0.0127 µM

Question: What about the IC50 [40] of the same molecule?
Answer: 0.0218 µM

Question: What about the IC50 [41] of the same molecule?
Answer: 0.0353 µM

Question: What about the “effector caspases 3 and 7 and their target PARP” value [42] of the same molecule?
Answer: cleavage and activation of effector caspases 3 and 7

Question: What about the “phosphorylated AKT” value [42] of the same molecule?
Answer: reduction of phosphorylated AKT

Question: And the “caspases 3/7 activity” value [43]?
Answer: activates caspases 3/7

Question: What about the “caspases 3/7 activity” value [44] of the same molecule?
Answer: activates caspases 3/7

Question: What about the “caspases 3/7 activity” value [45] of the same molecule?
Answer: activates caspases 3/7

Question: And the apoptosis ([46]; in culture)?
Answer: induced apoptosis

Question: What about the proliferation ([46]; normal growth condition) of the same molecule?
Answer: suppressed proliferation

Question: And the “conversion of [^14C]stearic acid into oleic acid” value ([47]; data not shown)?
Answer: blocked the conversion of [^14C]stearic acid into oleic acid

Question: What about the IC50 ([47]; read-out: IC50, synthesis of monounsaturated fatty acid from [^14C]acetate, UMUC-14 cells, estimated) of the same molecule?
Answer: 0.03 µM

Question: What about the IC50 [48] of the same molecule?
Answer: 0.0078 µM

Question: What about the cell viability [49] of the same molecule?
Answer: reduces cell viability

Question: What about the “suppression of tumor growth compared with vehicle control” value ([50]; 75 mg/kg twice a day, day 20, athymic nude mice) of the same molecule?
Answer: about 60%

Question: What about the “Max % TGI, PO” value ([50]; UMUC-14, bladder, orally twice a day) of the same molecule?
Answer: 77%

Question: And the “weight loss or other gross abnormalities” value ([50]; nude mice, course of the experiments)?
Answer: no significant weight loss or other gross abnormalities

Question: And the “Max % TGI, PO” value [51]?
Answer: No effect

Question: What about the “fatty acid desaturation in mouse liver and plasma” value [52] of the same molecule?
Answer: significantly reduced

Question: And the “ratio of monounsaturated fatty acid to saturated fatty acid in tumor lysates” value [52]?
Answer: markedly decreased
